Reference: ChEMBL document CHEMBL3808388 (J Med Chem, 2016)

Target: T1, Rhodopsin kinase GRK1 (Homo sapiens, UniProt Q15835)
T1 sequence (Q15835 whole entry): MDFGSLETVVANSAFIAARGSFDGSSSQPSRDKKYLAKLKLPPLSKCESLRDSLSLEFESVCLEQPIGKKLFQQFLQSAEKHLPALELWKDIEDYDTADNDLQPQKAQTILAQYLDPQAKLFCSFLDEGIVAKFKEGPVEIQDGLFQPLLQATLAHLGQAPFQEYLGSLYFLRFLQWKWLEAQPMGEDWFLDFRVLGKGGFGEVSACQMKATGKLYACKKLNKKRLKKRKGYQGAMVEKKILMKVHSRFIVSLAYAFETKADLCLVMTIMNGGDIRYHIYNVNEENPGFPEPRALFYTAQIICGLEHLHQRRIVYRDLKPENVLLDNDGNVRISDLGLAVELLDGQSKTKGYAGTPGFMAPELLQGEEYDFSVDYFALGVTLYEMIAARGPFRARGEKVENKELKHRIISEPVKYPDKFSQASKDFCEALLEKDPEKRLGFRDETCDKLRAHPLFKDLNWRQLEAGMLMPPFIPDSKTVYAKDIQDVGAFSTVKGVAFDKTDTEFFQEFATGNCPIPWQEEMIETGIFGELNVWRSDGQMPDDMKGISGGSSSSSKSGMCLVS
Assay: Inhibition of GRK1 (unknown origin) using tubulin as substrate by SDS-PAGE method

Q: How did the IC50 turn out when `CC1=C(C(=O)Nc2ccc3[nH]ncc3c2)C(c2ccc(F)c(C(=O)NCc3nccc4ccccc34)c2)NC(=O)N1` (stereo unspecified) was run?
A: 100 nM
